The subject of the data set is H3K4me2-biotin peptide (1ARTKme2QTARKSTGGKAPRKQLYKbiotin).

recombinant LSD1 (BPS Biosciences): the “peptide methylation state after the demethylase assay (MassSQUIRM, MALDI mass spectrometry)” value is on record as “from completely di-methylated to 97% un-methylated”.

These data come from patent US20120142040.
